From PubChem BioAssay AID540275 (National Center for Advancing Translational Sciences (NCATS), 2011)
The entries are a selection whose mix differs from that of the whole data set. Some results for these compounds are left out of this collection, so the calls shown say nothing about other tests. Inconclusive results are not listed. Activity calls are given as the source filed them. No stated cut-off is given here; in the data, active means activation above about 80%; inconclusive means between about 30% and that limit; inactive means weaker than that.

The chains behind the UniProt entries cited, without tags or fusion partners.
UniProt Q8NER1, whole entry: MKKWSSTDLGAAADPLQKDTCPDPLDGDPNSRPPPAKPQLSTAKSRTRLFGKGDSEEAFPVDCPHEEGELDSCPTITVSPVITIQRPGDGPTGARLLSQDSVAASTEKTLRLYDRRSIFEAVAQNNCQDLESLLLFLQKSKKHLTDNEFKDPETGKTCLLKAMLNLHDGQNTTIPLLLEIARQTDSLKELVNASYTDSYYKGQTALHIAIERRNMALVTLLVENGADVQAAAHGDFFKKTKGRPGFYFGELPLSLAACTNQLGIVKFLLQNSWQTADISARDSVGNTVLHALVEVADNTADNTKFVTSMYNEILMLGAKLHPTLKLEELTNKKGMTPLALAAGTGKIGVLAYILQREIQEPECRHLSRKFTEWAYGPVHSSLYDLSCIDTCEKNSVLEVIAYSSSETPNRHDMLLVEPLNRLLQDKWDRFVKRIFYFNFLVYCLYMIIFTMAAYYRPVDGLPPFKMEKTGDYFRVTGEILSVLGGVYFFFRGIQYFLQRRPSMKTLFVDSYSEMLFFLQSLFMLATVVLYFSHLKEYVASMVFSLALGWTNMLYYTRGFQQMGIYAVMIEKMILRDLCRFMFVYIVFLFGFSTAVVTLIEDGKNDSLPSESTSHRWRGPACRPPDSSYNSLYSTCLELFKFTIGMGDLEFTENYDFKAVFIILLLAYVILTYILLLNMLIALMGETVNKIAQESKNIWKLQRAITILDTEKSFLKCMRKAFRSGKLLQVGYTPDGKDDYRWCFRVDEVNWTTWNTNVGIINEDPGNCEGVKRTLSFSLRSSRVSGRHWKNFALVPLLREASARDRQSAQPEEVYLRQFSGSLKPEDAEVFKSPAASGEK

molecular target: Transient receptor potential cation channel subfamily V member 1 (Homo sapiens) (UniProt Q8NER1); assay: HTS Assay for Compounds that Act as Agonists of the Vanilloid Receptor 1; conditions: TRPV1-expressing cells, Fluo-8 calcium influx, agonist mode; at 8.33 µM; active compounds read high; further: 0% is about no effect
Text: The transient receptor potential ion channel, family V, number 1, (TRPV1) is one of the most important molecular transducers of painful stimuli and a potential target for analgesic drug development. Although recent clinical trials with orthosteric antagonists have not produced a successful drug because of a hyperthermia side effect and their tendency to block thermal noxious pain, this ion channel is undeniably well placed in the pain pathway, and the idea of blocking pain signals before they enter the CNS is an excellent concept and of proven efficacy when TRPV1 agonists are used. We propose a new approach involving allosteric modulation to impose an activity-dependent constraint within the context of inflammation and tissue damage that would alter the responsiveness of the channel in a way that an orthosteric vanilloid antagonist cannot achieve. We believe that the allosteric modulator approach has not been explored for this target. The main goal of this proposal is to identify additional, new, potent allosteric modulators of TRPV1 that can be used to investigate TRPV1 function. Our recent report provides evidence of proof of concept, but the compounds are just at the edge of utility in terms of potency. […] The question of whether they can be used as analgesic agents is complex, but if suitable compounds are identified then testing for analgesic properties will be conducted. NIH Chemical Genomics Center [NCGC] NIH Molecular Libraries Probe Centers Network [MLPCN] MLPCN Grant: MH089480-1A1 Assay Submitter (PI): Michael Iadarola, National Institute of Dental and Cranofacial Research
Upon TRPV1 activation in TRPV1 cells, the channel opens and extracellular cations flow through the channel into the cytosol. A calcium binding dye (Fluo-8) becomes fluorescent when bound to calcium. This dye is pre-loaded into cells and is used as a marker for calcium influx. The amount of accumulated calcium is precisely quantified using the FDSS kinetic reader and the calcium dye. For the HTS assay, freshly prepared cells are plated at a density of 2000/well in 3 ul medium in 1536-well plates and cultured overnight at 35.5C. Cells will be loaded with 1 ul of the homogeneous calcium dye (ABD Bioquest) at room temperature for 40 to 90 minutes. Plates will be loaded into the FDSS kinetic reader and a 1 sec / cycle for 10 second baseline signal will be measured. Compound library will then be added with a pintool at 23 nl and measured kinetically for 3 minutes. This portion of the read is considered the agonist portion of the screen. Following the 3 minutes of incubation, an on board pipettor will deliver 1 ul of capsaicin for a final concentration equal to the EC20. Signal will be measured kinetically for an additional 2 minutes. This portion of the read is considered the allosteric enhancer portion of the screen. The FDSS reader has a standard filter set capable of measuring calcium bound Fluo-8 (ex=480 and em=520 nm).

SMILES | activation
COc1ccc(Br)c(C(=O)NCC2(N3CCCCC3)CCCCC2)c1 | inactive: 5.62%
CC(C)Oc1ccc(C(=O)NCC2(N(C)C)CCCCC2)cc1 | inactive: -2.6%
CN(C)c1cccc(C(=O)NCC2(N(C)C)CCCCC2)c1 | inactive: 1.39%
O=C(OC1CN2CCC1CC2)C(CO)(c1ccccc1)c1ccccc1 (centres undefined) | inactive: 2.46%
COc1ccc(Cl)cc1C(=O)NCC1(N(C)C)CCCCC1 | inactive: 2.11%
COc1cccc(C(=O)NCC2(N3CCCCC3)CCCCC2)c1 | inactive: 4.94%
O=C(NCC1(N2CCCCC2)CCCCC1)c1cccc(Cl)c1 | inactive: 0.446%
CN(C)C1(CNC(=O)c2ccc(Br)cc2)CCCCC1 | inactive: 18.9%
COc1cc(C(=O)NCC2(N(C)C)CCCCC2)c([N+](=O)[O-])cc1OC | inactive: -0.155%
O=C(NCC1(N2CCCCC2)CCCCC1)c1cc(F)c(F)cc1Cl | inactive: -4.25%
C=CCN1CCN(CCOC(=O)C(O)(c2ccccc2)c2ccccc2)CC1 | inactive: -0.713%
COc1ccc(C(=O)NCC2(N(C)C)CCCCC2)cc1 | inactive: -1.69%
O=C(NCC1(N2CCCCC2)CCCCC1)c1cccc(Br)c1 | inactive: 1.56%
CCN1CCCC(OC(=O)C2(O)c3ccccc3C=Cc3ccccc32)C1 (centres undefined) | inactive: 0.772%
Cc1cc(C(=O)NCC2(N3CCCCC3)CCCCC2)ccc1[N+](=O)[O-] | inactive: -1.05%
CN(C)c1ccc(C(=O)NCC2(N(C)C)CCCCC2)cc1 | inactive: 0.219%
CN(C)C1CCCC1OC(=O)C(O)(c1ccccc1)c1ccccc1 (centres undefined) | inactive: -4.83%
Cc1ccccc1C(=O)NCC1(N2CCCCC2)CCCCC1 | inactive: 1.2%
COc1cc(SC)ccc1C(=O)NCC1(N(C)C)CCCCC1 | inactive: -4.35%
CCN(CC)CC(C)C(C)OC(=O)C(O)(c1ccccc1)c1ccccc1 (centres undefined) | inactive: 2.37%
CC(C)N1C(=O)CC2(CCN(CCOC(=O)C(O)(c3ccccc3)c3ccccc3)CC2)C1=O | inactive: 2.36%
Cc1ccc(C(=O)NCC2(N3CCCCC3)CCCCC2)cc1 | inactive: 0.491%
O=C(NCC1(N2CCCCC2)CCCCC1)c1cc([N+](=O)[O-])ccc1Cl | inactive: 1.05%
CN1[C@@H]2CC[C@H]1CC(OC(=O)C(O)(c1ccccc1)c1ccccc1)C2 (some centres undefined) | inactive: -1.41%
